Data published in US10077265B2, “Substituted oxopyridine derivatives” (BAYER PHARMA AKTIENGESELLSCHAFT, priority 2014, dated 2018).

By UniProt entry, the sequences of proteins in these tests, tags left out. Residues count along the entry.
UniProt P03952, 20-390 partner: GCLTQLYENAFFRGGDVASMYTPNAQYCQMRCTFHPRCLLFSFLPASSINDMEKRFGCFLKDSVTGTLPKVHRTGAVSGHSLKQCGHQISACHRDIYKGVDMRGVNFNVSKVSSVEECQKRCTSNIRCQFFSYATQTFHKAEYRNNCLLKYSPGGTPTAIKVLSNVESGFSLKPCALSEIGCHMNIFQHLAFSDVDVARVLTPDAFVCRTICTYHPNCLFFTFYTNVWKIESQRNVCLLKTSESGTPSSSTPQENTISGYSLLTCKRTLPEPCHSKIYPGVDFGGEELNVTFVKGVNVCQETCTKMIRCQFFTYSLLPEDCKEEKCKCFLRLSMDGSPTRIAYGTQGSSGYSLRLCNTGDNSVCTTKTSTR
UniProt P03952, 391-638: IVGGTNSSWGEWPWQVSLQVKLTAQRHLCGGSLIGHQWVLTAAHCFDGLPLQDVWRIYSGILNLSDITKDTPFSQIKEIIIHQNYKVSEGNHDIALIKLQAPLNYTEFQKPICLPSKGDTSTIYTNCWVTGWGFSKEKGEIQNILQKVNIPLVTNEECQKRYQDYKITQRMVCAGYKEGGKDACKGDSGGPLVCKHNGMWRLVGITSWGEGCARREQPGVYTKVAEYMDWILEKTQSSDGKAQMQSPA
UniProt P03951, 19-387 partner: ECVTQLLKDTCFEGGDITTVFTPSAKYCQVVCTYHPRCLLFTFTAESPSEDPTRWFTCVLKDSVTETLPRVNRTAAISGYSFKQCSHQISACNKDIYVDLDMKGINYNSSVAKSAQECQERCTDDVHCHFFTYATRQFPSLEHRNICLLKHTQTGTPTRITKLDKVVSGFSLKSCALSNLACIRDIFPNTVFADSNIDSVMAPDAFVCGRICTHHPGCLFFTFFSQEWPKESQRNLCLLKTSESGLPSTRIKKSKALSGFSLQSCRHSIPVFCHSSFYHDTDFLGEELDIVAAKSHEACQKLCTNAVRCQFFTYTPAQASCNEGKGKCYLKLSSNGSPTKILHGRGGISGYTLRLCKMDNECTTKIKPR
UniProt P03951, 388-625: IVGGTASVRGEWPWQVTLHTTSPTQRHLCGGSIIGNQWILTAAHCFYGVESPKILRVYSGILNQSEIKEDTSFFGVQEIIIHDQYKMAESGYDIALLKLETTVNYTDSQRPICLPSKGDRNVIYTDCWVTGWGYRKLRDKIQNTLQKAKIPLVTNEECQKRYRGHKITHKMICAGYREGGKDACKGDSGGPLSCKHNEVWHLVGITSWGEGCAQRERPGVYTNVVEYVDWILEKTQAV

How the values were obtained:
[1] = target: human plasma kallikrein (Homo sapiens (Human), UniProt P03952); assay: Determination of the plasma kallikrein activity (fluorogenic peptide substrate); type: biochemical; conditions: plasma kallikrein from Kordia, substrate H-Pro-Phe-Arg-AMC, 30 min at 22° C.
Protocol: (§1) To determine the plasma kallikrein inhibition of the substances according to the invention, a biochemical test system is used which utilizes the reaction of a peptidic plasma kallikrein substrate to determine the enzymatic activity of human plasma kallikrein. Here, plasma kallikrein cleaves from the peptic plasma kallikrein substrate the C-terminal aminomethylcoumarin (AMC), the fluorescence of which is measured. The determinations are carried out in microtitre plates.
Test substances are dissolved in dimethyl sulphoxide and serially diluted in dimethyl sulphoxide (3000 μM to 0.0078 μM; resulting final concentrations in the test: 50 μM to 0.00013 μM). 1 μl of the diluted substance solutions is placed into each of the wells of white microtitre plates from Greiner (384 wells). 20 μl of assay buffer (50 mM Tris/HCl pH 7.4; 100 mM sodium chloride solution; 5 mM of calcium chloride solution; 0.1% of bovine serum albumin) and 20 μl of plasma kallikrein from Kordia (0.6 nM in assay buffer) are then added successively. After 15 min of incubation, the enzyme reaction is started by addition of 20 μl of the substrate H-Pro-Phe-Arg-AMC dissolved in assay buffer (10 μM in assay buffer) from Bachem, the mixture is incubated at room temperature (22° C.) for 30 min and fluorescence is then measured (excitation: 360 nm, emission: 460 nm). The measured emissions of the test batches with test substance are compared to those of control batches without test substance (only dimethyl sulphoxide instead of test substance in dimethyl sulphoxide), and IC50 values are calculated from the concentration/activity relationships.

[2] = target: human factor XIa (Homo sapiens (Human), UniProt P03951); assay: Measurement of FXIa inhibition (fluorogenic peptide substrate); type: biochemical; conditions: factor XIa from Kordia, substrate Boc-Glu(OBzl)-Ala-Arg-AMC, 30 min at 22° C.
Protocol: as §1, with “The factor XIa” for “To determine the plasma kallikrein”, “invention is determined using” for “invention,”, “system” for “system is used”, “factor XIa” for “plasma kallikrein”, “factor XIa.” for “plasma kallikrein.”
1 μl of the diluted substance solutions is placed into each of the wells of white microtitre plates from Greiner (384 wells). […] After 15 min of incubation, the enzyme reaction is started by addition of 20 μl of the factor XIa substrate Boc-Glu(OBzl)-Ala-Arg-AMC dissolved in assay buffer (10 μM in assay buffer) from Bachem, the mixture is incubated at room temperature (22° C.) for 30 min and fluorescence is then measured (excitation: 360 nm, emission: 460 nm). The measured emissions of the test batches with test substance are compared to those of control batches without test substance (only dimethyl sulphoxide instead of test substance in dimethyl sulphoxide), and IC50 values are calculated from the concentration/activity relationships.

## CCC(C(=O)Nc1ccn2ncc(C(N)=O)c2c1)n1cc(OC)c(-c2cc(Cl)ccc2C#N)cc1=O (racemic) [Example 3, 5-({2-[4-(5-Chloro-2-cyanophenyl)-5-methoxy-2-oxopyridin-1(2H)-yl]butanoyl}amino)pyrazolo-[1,5-a]pyridine-3-carboxamide (racemate)]
[1]
  pIC50: 7.96

## COCCC(C(=O)Nc1ccn2ncc(C(N)=O)c2c1)n1cc(OC)c(-c2cc(Cl)ccc2C#N)cc1=O (racemic) [Example 4, 5-({2-[4-(5-Chloro-2-cyanophenyl)-5-methoxy-2-oxopyridin-1(2H)-yl]-4-methoxybutanoyl}amino)pyrazolo[1,5-a]pyridine-3-carboxamide (racemate)]
[1]
  pIC50: 8.57

## CCCNC(=O)c1cnn2ccc(NC(=O)C(CCOC)n3cc(OC)c(-c4cc(Cl)ccc4C#N)cc3=O)cc12 (racemic) [Example 7, 5-({2-[4-(5-Chloro-2-cyanophenyl)-5-methoxy-2-oxopyridin-1(2H)-yl]-4-methoxybutanoyl}amino)-N-propylpyrazolo[1,5-a]pyridine-3-carboxamide (racemate)]
[2]
  pIC50: 7.29

## COCCC(C(=O)Nc1ccn2ncc(C(N)=O)c2c1)n1cc(OC)c(-c2cc(Cl)ccc2C#N)cc1=O (single isomer, unassigned; enantiomer 1) [Example 5, 5-({2-[4-(5-Chloro-2-cyanophenyl)-5-methoxy-2-oxopyridin-1(2H)-yl]-4-methoxybutanoyl}-amino)pyrazolo[1,5-a]pyridine-3-carboxamide (enantiomer 1)]
[1]
  pIC50: 9.10

pIC50: −log10 of the molar value.
